PubChem BioAssay AID894 (National Center for Advancing Translational Sciences (NCATS), 2007)
The entries are a selection whose mix differs from that of the whole data set. Inconclusive results are not listed. Activity calls are given as the source filed them. Calls come from the whole dose curve; as a rule, active = well fitted inhibition curve with a large enough effect (not every such curve was filed as active); inconclusive = small, poorly fitted or top-dose-only effect, or another doubt; inactive = no such curve, though single readings can be large or run the other way.

The chains behind the UniProt entries cited, without tags or fusion partners. Where a name states a change or a piece, a line headed by the entry shows the natural chain unless it says otherwise.
UniProt P15428: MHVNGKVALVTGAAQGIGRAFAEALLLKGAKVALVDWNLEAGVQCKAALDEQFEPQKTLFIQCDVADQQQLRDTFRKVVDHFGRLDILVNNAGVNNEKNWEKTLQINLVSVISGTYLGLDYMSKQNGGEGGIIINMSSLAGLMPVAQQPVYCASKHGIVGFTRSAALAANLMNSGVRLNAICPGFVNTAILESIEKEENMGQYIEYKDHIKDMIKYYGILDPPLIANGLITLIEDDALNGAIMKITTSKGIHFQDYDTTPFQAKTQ

Each compound was assayed against 15-hydroxyprostaglandin dehydrogenase [NAD(+)] (Homo sapiens) (UniProt P15428) (assay: qHTS Assay for Inhibitors of HPGD (15-Hydroxyprostaglandin Dehydrogenase)). Details: purified HPGD, NADH fluorescence kinetic, PGE2 substrate.
Potency is the fitted concentration of half-maximal effect.

How did the Potency turn out when `O=C1NC(=O)/C(=C/c2ccccc2Oc2ccc(Cl)cc2)S1` was run?
The Potency was active: 3.55 µM.
